Tested on: hCD20+ B cells
Assay: B cell depletion in hCD20+ mice, FACS analysis of spleen, blood, lymph node and Peyer's Patches
Format: in vivo
Details: intraperitoneal

B1: Anti-CD20 mAb: anti-CD20 monoclonal antibody injected intraperitoneally into hCD20+ mice; the clone is not specified (antibody, V domains shown)
VH: QAYLQQSGAELVRPGASVKMSCKASGYTFTSYNMHWVKQTPRQGLEWIGAIYPGNGDTSYNQKFKGKATLTVDKSSSTAYMQLSSLTSEDSAVYFCARVVYYSNSYWYFDVWGTGTTVTVS
VL: QIVLSQSPAILSASPGEKVTMTCRASSSVSYMHWYQQKPGSSPKPWIYAPSNLASGVPARFSGSGSGTSYSLTISRVEAEDAATYYCQQWSFNPPTFGAGTKLELK
depletion of mature circulating B cells (blood and lymph nodes): > 99%
effect on B cell populations in the spleen (spleen, T2, follicular and marginal zone B cells): depletes T2 and follicular B cells, but not marginal zone B cells
